From US6461856B2 (priority 1999, dated 2002)
Some compounds may have been tested in ways that are not shown here.

System: F420-dependent dehydrogenase (ORF 9)
Settings: NADPH 0.075 mM, F420 0.0025 mM, substrate 0.025 mM, ORF 8 extract as reagent; FIG. 8A/8B

**Q.** With `O=[N+]([O-])c1cc([N+](=O)[O-])c(O)c([N+](=O)[O-])c1` as the compound, how does the “reduction of the substrate to its Meisenheimer complex upon addition of ORF 9 extract” value read?
**A.** Its value is “reduces”.
